Source: PubChem BioAssay AID1768 (National Center for Advancing Translational Sciences (NCATS), 2009)
The list shows a part of the results, in another mix than the full data. Some results for these compounds are left out of this collection, so the calls shown say nothing about other tests. Records with an inconclusive call do not appear. Activity calls are given as the source filed them. Calls follow the shape of the dose curve; as a rule, active = well fitted inhibition curve with a large enough effect in the polarisation, with a control signal flat (not every such curve was filed as active); inconclusive = small, poorly fitted or top-dose-only effect, or effect the other way, or a change in a side signal; inactive = no such curve, though single readings can be large or run the other way; the % refers to the polarisation.

Sequences of proteins named here, by UniProt entry; tags and fusion partners are left off.
UniProt O00255, whole entry: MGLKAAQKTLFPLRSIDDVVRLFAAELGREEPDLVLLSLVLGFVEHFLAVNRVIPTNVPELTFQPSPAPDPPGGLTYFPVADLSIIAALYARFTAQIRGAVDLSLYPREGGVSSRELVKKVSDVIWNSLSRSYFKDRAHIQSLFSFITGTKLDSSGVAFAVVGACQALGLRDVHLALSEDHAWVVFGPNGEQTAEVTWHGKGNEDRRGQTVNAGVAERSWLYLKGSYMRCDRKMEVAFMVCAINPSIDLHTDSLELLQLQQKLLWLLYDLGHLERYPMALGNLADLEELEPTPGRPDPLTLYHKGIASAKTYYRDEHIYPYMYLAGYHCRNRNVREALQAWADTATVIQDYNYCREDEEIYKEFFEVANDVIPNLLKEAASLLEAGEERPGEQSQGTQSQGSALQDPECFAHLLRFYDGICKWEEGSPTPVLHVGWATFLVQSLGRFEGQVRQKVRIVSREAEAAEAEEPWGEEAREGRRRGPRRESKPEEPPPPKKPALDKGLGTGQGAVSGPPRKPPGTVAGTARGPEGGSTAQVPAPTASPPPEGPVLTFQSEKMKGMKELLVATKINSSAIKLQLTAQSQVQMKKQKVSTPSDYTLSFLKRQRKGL
UniProt Q03164, whole entry partner: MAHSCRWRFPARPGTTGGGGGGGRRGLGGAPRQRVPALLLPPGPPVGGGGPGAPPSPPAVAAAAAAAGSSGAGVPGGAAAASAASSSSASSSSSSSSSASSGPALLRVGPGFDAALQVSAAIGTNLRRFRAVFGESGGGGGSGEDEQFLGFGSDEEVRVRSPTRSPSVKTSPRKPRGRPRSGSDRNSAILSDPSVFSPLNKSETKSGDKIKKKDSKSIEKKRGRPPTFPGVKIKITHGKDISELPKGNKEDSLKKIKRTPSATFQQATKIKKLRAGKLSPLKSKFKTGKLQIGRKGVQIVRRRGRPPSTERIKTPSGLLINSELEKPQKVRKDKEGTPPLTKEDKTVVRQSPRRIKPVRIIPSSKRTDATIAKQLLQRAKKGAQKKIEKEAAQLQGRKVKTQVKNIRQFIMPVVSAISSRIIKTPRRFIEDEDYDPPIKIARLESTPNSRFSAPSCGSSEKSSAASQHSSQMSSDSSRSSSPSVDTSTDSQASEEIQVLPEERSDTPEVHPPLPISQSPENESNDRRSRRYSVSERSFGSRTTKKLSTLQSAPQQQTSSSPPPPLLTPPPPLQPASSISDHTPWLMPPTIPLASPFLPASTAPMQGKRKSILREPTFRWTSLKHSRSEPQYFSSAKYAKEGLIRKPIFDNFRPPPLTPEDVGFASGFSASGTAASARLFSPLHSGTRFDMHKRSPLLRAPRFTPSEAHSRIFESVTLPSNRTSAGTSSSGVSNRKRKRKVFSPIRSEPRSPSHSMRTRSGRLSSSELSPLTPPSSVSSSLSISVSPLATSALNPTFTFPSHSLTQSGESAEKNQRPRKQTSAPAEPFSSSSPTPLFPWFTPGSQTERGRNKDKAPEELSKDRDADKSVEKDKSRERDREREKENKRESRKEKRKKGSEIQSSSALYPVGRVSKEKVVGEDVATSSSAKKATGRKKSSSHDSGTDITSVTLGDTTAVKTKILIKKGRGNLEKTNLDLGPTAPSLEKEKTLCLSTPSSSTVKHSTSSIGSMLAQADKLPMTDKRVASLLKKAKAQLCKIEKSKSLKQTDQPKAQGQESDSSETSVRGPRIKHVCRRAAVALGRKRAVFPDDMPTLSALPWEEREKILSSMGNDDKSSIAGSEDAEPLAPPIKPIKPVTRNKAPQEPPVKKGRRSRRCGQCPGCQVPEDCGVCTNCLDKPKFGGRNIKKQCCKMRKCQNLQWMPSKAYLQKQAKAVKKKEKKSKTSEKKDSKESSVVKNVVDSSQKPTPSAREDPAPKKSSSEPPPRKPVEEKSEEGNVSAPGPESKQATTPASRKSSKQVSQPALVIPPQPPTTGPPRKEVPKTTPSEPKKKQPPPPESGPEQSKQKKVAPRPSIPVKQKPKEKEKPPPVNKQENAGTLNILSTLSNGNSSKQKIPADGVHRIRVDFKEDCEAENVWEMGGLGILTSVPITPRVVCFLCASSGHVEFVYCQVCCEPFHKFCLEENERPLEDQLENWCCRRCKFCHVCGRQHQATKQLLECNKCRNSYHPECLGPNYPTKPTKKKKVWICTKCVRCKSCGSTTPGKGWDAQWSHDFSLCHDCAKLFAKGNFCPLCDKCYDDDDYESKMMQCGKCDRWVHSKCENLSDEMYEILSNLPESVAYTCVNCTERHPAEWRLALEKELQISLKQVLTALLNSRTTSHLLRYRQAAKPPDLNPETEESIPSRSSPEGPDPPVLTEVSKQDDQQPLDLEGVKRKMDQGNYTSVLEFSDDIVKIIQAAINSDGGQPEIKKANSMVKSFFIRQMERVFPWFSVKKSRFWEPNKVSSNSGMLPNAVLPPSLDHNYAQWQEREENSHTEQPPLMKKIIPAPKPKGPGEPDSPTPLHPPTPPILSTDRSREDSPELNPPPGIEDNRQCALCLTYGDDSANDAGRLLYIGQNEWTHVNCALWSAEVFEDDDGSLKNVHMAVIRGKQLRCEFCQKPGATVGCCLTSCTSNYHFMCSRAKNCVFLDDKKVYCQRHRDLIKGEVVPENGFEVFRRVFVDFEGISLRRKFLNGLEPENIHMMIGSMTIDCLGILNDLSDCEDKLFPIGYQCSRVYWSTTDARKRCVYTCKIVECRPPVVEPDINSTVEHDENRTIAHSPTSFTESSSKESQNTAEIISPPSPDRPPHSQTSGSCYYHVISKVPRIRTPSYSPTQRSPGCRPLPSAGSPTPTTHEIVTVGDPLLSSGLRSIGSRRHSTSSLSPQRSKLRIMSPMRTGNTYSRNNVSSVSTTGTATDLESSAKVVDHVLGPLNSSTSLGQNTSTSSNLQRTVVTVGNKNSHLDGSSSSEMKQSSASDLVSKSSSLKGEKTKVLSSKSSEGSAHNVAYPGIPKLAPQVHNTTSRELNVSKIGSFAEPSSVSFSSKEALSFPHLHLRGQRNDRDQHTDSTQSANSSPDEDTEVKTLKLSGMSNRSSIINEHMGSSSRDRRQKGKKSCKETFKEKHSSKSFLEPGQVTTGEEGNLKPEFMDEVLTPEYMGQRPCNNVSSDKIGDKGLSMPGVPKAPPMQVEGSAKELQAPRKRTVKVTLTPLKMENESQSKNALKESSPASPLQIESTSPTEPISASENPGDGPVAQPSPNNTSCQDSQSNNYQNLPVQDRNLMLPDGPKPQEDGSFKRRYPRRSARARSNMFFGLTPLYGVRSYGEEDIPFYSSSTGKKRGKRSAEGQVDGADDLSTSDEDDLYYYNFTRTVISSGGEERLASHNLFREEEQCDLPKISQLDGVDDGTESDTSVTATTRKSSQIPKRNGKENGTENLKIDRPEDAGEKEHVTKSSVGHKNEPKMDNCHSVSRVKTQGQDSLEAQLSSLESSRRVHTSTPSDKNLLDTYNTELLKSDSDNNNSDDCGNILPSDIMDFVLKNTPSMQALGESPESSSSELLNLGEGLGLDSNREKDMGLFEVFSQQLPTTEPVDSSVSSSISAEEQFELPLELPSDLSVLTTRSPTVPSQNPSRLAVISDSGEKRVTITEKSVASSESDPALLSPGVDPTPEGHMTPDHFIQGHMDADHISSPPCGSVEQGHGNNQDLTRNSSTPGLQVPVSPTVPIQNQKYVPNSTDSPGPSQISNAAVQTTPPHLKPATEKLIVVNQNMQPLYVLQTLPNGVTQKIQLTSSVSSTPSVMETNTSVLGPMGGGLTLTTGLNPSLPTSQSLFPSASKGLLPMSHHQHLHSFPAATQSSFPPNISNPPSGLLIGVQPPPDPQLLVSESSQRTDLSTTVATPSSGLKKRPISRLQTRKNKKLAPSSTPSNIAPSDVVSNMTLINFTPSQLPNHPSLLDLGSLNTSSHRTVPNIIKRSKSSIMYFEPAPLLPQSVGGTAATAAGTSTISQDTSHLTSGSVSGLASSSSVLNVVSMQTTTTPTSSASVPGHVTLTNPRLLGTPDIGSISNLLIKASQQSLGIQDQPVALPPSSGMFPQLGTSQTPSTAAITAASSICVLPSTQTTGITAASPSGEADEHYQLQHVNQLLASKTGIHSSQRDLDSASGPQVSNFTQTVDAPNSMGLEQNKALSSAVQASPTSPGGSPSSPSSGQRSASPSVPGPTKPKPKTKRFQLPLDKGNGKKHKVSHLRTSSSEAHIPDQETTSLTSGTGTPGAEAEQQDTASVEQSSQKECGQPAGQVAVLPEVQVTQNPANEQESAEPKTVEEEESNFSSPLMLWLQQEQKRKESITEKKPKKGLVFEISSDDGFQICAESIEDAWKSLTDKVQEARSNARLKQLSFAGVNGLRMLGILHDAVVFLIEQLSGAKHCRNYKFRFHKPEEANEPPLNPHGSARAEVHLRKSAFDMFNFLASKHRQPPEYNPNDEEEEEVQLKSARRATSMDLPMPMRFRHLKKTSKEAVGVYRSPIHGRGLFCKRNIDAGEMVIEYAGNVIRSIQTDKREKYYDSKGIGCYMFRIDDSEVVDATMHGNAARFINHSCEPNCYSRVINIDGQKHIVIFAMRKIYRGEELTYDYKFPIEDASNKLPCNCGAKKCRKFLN

target: Menin (Homo sapiens) (UniProt O00255); experiment: qHTS Assay for Inhibitors Targeting the Menin-MLL Interaction in MLL Related Leukemias: Competition With Texas Red Labeled MLL-derived Mutant Peptide; settings: fluorescence polarization; at 61.6 µM (top of the series); also: % of control where 0% means no effect

| SMILES | FP activity change, negative = inhibition |
| --- | --- |
| O=C(NCC1(N2CCCCC2)CCCCC1)c1cc(F)c(F)cc1Cl | inactive: -9.13% |
| C=CCN1CCN(CCOC(=O)C(O)(c2ccccc2)c2ccccc2)CC1 | inactive: -0.292% |
| COc1ccc(C(=O)NCC2(N(C)C)CCCCC2)cc1 | inactive: -5.04% |
| O=C(NCC1(N2CCCCC2)CCCCC1)c1cccc(Br)c1 | inactive: -15.1% |
| Cc1cc(C(=O)NCC2(N3CCCCC3)CCCCC2)ccc1[N+](=O)[O-] | inactive: 1.98% |
| CCN1CCCC(OC(=O)C2(O)c3ccccc3C=Cc3ccccc32)C1 (stereo unspecified) | inactive: -7.54% |
| CN(C)C1CCCC1OC(=O)C(O)(c1ccccc1)c1ccccc1 (stereo unspecified) | inactive: 25.7% |
| CN(C)c1ccc(C(=O)NCC2(N(C)C)CCCCC2)cc1 | inactive: -12.5% |
| Cc1ccccc1C(=O)NCC1(N2CCCCC2)CCCCC1 | inactive: -3.56% |
| CN1CCCC(OC(=O)C(O)(c2ccccc2)c2ccccc2)C1 (stereo unspecified) | inactive: 7.56% |
| COc1cc(SC)ccc1C(=O)NCC1(N(C)C)CCCCC1 | inactive: 1.98% |
| O=C(NCC1(N2CCCCC2)CCCCC1)c1cc([N+](=O)[O-])ccc1Cl | inactive: -4.75% |
| CN1[C@@H]2CC[C@H]1CC(OC(=O)C(O)(c1ccccc1)c1ccccc1)C2 (stereo partly specified) | inactive: -7.85% |
| CC(C)Oc1ccc(C(=O)NCC2(N(C)C)CCCCC2)cc1 | inactive: 1.38% |
| CN(C)c1cccc(C(=O)NCC2(N(C)C)CCCCC2)c1 | inactive: 17.3% |
| O=C(OC1CN2CCC1CC2)C(CO)(c1ccccc1)c1ccccc1 (stereo unspecified) | inactive: 1.41% |
| COc1ccc(Cl)cc1C(=O)NCC1(N(C)C)CCCCC1 | inactive: -13.3% |
| COc1cccc(C(=O)NCC2(N3CCCCC3)CCCCC2)c1 | inactive: -15.4% |
| O=C(NCC1(N2CCCCC2)CCCCC1)c1cccc(Cl)c1 | inactive: -14% |
| CN(C)C1(CNC(=O)c2ccc(Br)cc2)CCCCC1 | inactive: -12% |
| COc1cc(C(=O)NCC2(N(C)C)CCCCC2)c([N+](=O)[O-])cc1OC | inactive: -18.8% |
